The values that follow come from US4921850A, “3-propenylcephem derivative” (Eisai Co., Ltd., priority 1986, dated 1990).

Molecules are shown by their SMILES.

The series in a line: in vivo. Particulars: intravenous, physiological saline solution, five ICR male 6 weeks-old mouse, read-out: values of acute toxicity. From the text:
(1) Acute toxicity in mouse:
The compounds according to this invention dissolved in a physiological saline solution were intravenously dosed to five ICR male 6 weeks-old mouse.

Turning to `CC[N+](C)(C/C=C/C1=C(C(=O)[O-])N2C(=O)[C@@H](NC(=O)/C(=N\OCF)c3nsc(N)n3)[C@H]2SC1)CC(N)=O` (stereo partly drawn) [Example 1, 7β-[2-(5-Amino-1,2,4-thiadiazol-3-yl)-(Z)-2-fluoromethoxyiminoacetamido]-3-[(E)-3-(carbamoylmethylethylmethylammonio)-1-propen-1-yl]-3-cephem-4-carboxylate], the LD50 was over 2000 mg/kg.
